Test system: tumors
Experiment: Biodistribution in tumor-bearing mice, Xenogen imaging
Type: in vivo, mouse
Details: 12 nmol, tail vein
From the text: Xenogen imaging and quantification of Alexa680-labeled […] (Tz) and BSA (12 nmol ea) after tail vein injection.

Substance: trastuzumab
- distribution to the brain: in contrast

Reference: patent publication US12502351B2, “Receptor targeting constructs and uses thereof” (Cedars-Sinai Medical Center, priority 2014, dated 2025)
